This is a sample that favours compounds with a hit; in the whole collection about 2.8% have one here.
esBAF inh = SWI/SNF esBAF complex inhibition. mouse ES cells, Bmi1-luciferase knock-in reporter, 24 h; 100% = twice the neutral-well signal. reporter increase, % at 12.5 µM. 2% of 350,000 active. AID 602393; in the data active means activation above about 40%; inconclusive means no clear call, values can overlap the other calls;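 further: a rise in the Bmi1 reporter signal indicates esBAF inhibition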
PGC1a acetyl inh = lowers PGC1a acetylation signal in U2OS cells; inhibition, % at 15.6 µM; 0.17% of 350,000 active; AID 651687; AlphaScreen anti-acetyl-lysine; with virally co-expressed GCN5 acetyltransferase;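 active means every replicate shows inhibition of at least 40%; inconclusive means mean inhibition at least 40% but some replicate below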
PglD DTNB = PglD (C. jejuni) enzyme inhibition; 0.098% of 360,000 active; purified PglD enzyme, DTNB colorimetric CoA detection; inhibition, % at 12.5 µM; AID 602405; in the data active means inhibition above about 16%, passing the limit was not always enough; inconclusive means no clear call, values can overlap the other calls
E-selectin induc = E-selectin induction on HUVECs | 0.37% of 260,000 active | AID 686992 | HUVEC E-selectin immunofluorescence imaging; normalized: neutral wells 0, TNF-alpha wells 100 | activation, % at 7.58 µM | P16581;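 active means mean E-selectin-positive cell signal at least 10% of the positive control, reached in at least 60% of replicates, without over 20% cell loss; inconclusive means no rule given, readout overlaps actives, possibly toxicity-flagged; inactive means the rest, including those meeting only one limit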
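Test system – human umbilical vein endothelial cells (HUVEC), E-selectin induction · Input – 3,000 HUVEC seeded per well · Buffer or medium – EGM-2, gelatin · Compound dosing – single-point compound dose · Detection – immunofluorescence imaging · Measure – percent E-selectin-positive cells · Controls – TNF-alpha high, DMSO low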
Statin myotox sup = suppressors of simvastatin-induced myotoxicity in C2C12 myotubes; ATP luminescence, 48 h; scaled: DMSO 0, geranylgeraniol control 100; rescue of ATP level, % at 7.49 µM; 0.78% of 330,000 active;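 active means mean ATP rescue above about 67%, or every replicate alone reaching that limit, limit read from the data, passing the limit was not always enough; inconclusive means no clear call, values can overlap the other calls; inactive means mean under the limit and some replicate under it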;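 further: myotubes were challenged with 10 µM simvastatin during compound exposure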
UUG fidelity = modulators of start codon recognition fidelity in yeast; S. cerevisiae UUG-firefly luciferase reporter, luminescence/redox ratio; activity score, % at 18.7 µM; hit rate 0.13% among 350,000; AID 602363;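 active = replicate mean at a twofold rise or more, about +100% in these data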;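 note: firefly luciferase made from a UUG start codon reports start codon fidelity; reporter light over untreated wells divided by growth signal over untreated wells; some hits fall short of that in this replicate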
A number is an active result; – = inactive; ? = inconclusive; · = not tested or not shown.

SMILES | esBAF inh | PGC1a acetyl inh | PglD DTNB | E-selectin induc | Statin myotox sup | UUG fidelity
O=C(C[C@H]1C=C[C@H](NC(=O)CC2CC2)[C@@H](CO)O1)NCc1ccc(Cl)cc1 | – | – | – | – | – | –
CCCCn1c(SCC(=O)NCc2ccc3c(c2)OCO3)nnc1C(CC)N(C)C (configuration not stated) | – | 43.7 | – | – | – | –
C[C@H]1CN([C@@H](C)CO)C(=O)Cc2cc(NC(=O)CCCCCC(=O)Nc3ccccc3N)ccc2O[C@@H]1CN(C)S(=O)(=O)c1ccc(Cl)cc1 | – | – | · | – | – | ·
Cc1ccc(-c2nnc(N3CCN(C(=O)CN4CCOCC4)CC3)c3ccccc23)cc1 | – | · | – | · | – | –
O=C(CN1CCOCC1)N1CCN(c2nnc(-c3ccccc3)c3ccccc23)CC1 | – | – | – | · | 114.5 | –
CC(/C=N/NC(=O)c1cccs1)=C\c1ccco1 | 98.2 | – | – | – | – | –
CC(/C=N/NC(=O)Cc1cccs1)=C\c1ccco1 | · | · | – | · | · | –
O=C(C1CCOCC1)N1CC(=O)N2[C@H](CO)[C@H](c3ccc(-c4cccnc4)cc3)[C@@H]2C1 | · | – | · | – | · | ·
CCN=c1scc(-c2ccco2)n1/N=C/c1ccc(O)cc1 | – | – | – | · | – | –
CCN=c1scc(-c2ccco2)n1/N=C/c1ccc(OC)c(O)c1 | 53.9 | – | – | · | – | –
CCC(=O)Nc1ccc2c(c1)OC[C@@H](C)N(Cc1cccnc1)C[C@@H](C)[C@@H](OC)CN(C)C2=O | – | – | – | – | – | –
COc1ccc(S(=O)(=O)Nc2cccc3c2O[C@@H](CN(C)S(=O)(=O)c2ccc(Cl)cc2)[C@H](C)CN([C@H](C)CO)C3=O)cc1 | – | – | – | – | – | –
O=C1N2CCCc3cccc(c32)C12Nc1ccccc1S2 (configuration not stated) | – | – | – | · | 152.5 | –
NNC(=O)c1ccc(COc2ccc3ccccc3c2)o1 | · | · | · | – | · | ·
O=C(OCc1ccccn1)c1ccc(COc2ccc3ccccc3c2)o1 | 53.3 | – | – | · | – | –
COCCCNC(=O)c1cccn2c(=O)c3cc4ccccc4cc3nc12 | – | – | – | · | 182.0 | –
C=CCn1c(=N)c(C(=O)NCCCOC)cc2c(=O)n3cccc(C)c3nc21 | – | – | – | · | – | –
O=C(OCc1c(-c2ccccc2)ncc2ccccc12)N1CCOCC1 | 56.7 | · | – | – | – | –
O=C(O)CCC(=O)OCc1c(-c2ccccc2)ncc2ccccc12 | – | – | – | – | – | –
Cc1ccc(/C=C/C(=O)c2ccccc2O)cc1 | · | – | – | – | · | –
Cc1ccc2occ(/C=C/C(=O)c3ccccc3O)c(=O)c2c1 | 51.2 | – | – | · | · | –
Cc1c(/C=C/C(=O)c2ccccc2O)cnn1C | 51.5 | – | – | – | – | –
Cc1ccc(OCC(=O)O/N=C(\N)c2ccccn2)cc1C | · | – | – | – | · | –
Cc1ccc(OCC(=O)O/N=C(\N)c2ccncc2)cc1C | 53.5 | – | – | · | – | –
COc1cccc(OCC(=O)O/N=C(\N)c2ccncc2)c1 | 46.9 | – | – | – | – | –
SMILES | esBAF inh | PGC1a acetyl inh | PglD DTNB | E-selectin induc | Statin myotox sup | UUG fidelity
O=[N+]([O-])c1cc(/C=N/N2CCCCC2)ccc1Cl | · | – | · | · | · | ·
O=[N+]([O-])c1cccc(C=NN2CCCCCC2)c1 | 78.8 | – | · | · | – | ·
O=[N+]([O-])c1cc(/C=N/NC(=S)Nc2ccccc2Cl)ccc1Cl | 45.6 | – | – | · | – | –
Cc1ccc(NC(=S)N/N=C/c2ccc(Cl)c([N+](=O)[O-])c2)cc1 | · | – | · | · | · | ·
O=[N+]([O-])c1cccc(/C=N/N2CCN(Cc3ccccc3)CC2)c1 | – | – | – | – | – | –
O=[N+]([O-])c1cc(C=NN2CCCCCC2)ccc1Cl | 73.8 | – | · | · | – | ·
O=C(C[C@H]1C=C[C@@H](NC(=O)c2ccc3c(c2)OCO3)[C@@H](CO)O1)NC1Cc2ccccc2C1 | · | · | · | – | · | ·
C[C@H](CO)N1C[C@H](C)[C@H](CN(C)C(=O)Cc2ccncc2)Oc2ncc(C3=CCCCC3)cc2C1=O | – | – | – | – | – | –
Cc1ccc(-c2cc(N)n(-c3ccc(C)cc3)n2)cc1 | 46.9 | – | – | · | 111.8 | –
Cc1ccc(-c2cc(N)n3nc(-c4ccc(C)cc4)cc3n2)cc1 | – | – | – | · | – | –
O=C(COC(=O)COc1ccc2c(c1)CCC2)Nc1ccccc1 | 42.0 | – | – | · | – | –
O=C(COc1ccc2c(c1)CCC2)Nc1ccccn1 | 51.4 | – | – | · | – | –
Cc1ccccc1NC(=O)COC(=O)COc1ccc2c(c1)CCC2 | – | – | – | – | – | –
COc1ccc(NC(=O)N(C)C[C@H]2OCCCC[C@H](C)Oc3ccc(NC(=O)Nc4ccc(F)cc4)cc3C(=O)N([C@H](C)CO)C[C@@H]2C)cc1 | – | – | – | – | · | –
CN(C)c1ccnc(NCc2ccccc2)c1C#N | – | – | – | · | – | –
CN(C)c1ccnc(N(Cc2ccccc2)Cc2ccccc2)c1C#N | 74.5 | – | – | · | – | –
CN(C)c1cccc(NC(=O)c2cccc3c(-c4ccc(F)c(F)c4)coc23)c1 | 41.4 | – | – | – | – | –
O=C(Nc1ccccc1)c1cccc2c(-c3cccnc3)coc12 | 55.3 | · | – | – | – | –
O=C(C1CC1)N1CC2(C1)[C@H](c1ccccc1)[C@H](CO)N2Cc1nccs1 | · | – | · | – | · | ·
O=C1C(C=NCCN2CCOCC2)=C(O)c2ccccc21 | 51.4 | – | – | · | – | –
COc1ccc(C=NCCCN2CCOCC2)cc1 | – | – | – | · | 87.6 | –
CC1(C)CC(=O)C(C=NCCN2CCOCC2)=C(O)C1 | – | – | – | · | – | –
O=C1C(C=NCCCN2CCOCC2)=C(O)c2ccccc21 | – | – | – | · | 123.7 | –
C[C@@H]1CN([C@@H](C)CO)C(=O)c2cc(C#CC3(O)CCCC3)cnc2O[C@@H]1CN(C)C | – | – | – | – | – | –
O=C(N[C@H]1/C=C\[C@@H](O)CCCC1)OCc1ccccc1 | 69.5 | – | – | – | – | –
SMILES | esBAF inh | PGC1a acetyl inh | PglD DTNB | E-selectin induc | Statin myotox sup | UUG fidelity
COc1ccc(NC(=O)Nc2ccc3c(c2)C(=O)N([C@H](C)CO)C[C@H](C)[C@H](CN(C)C(=O)Nc2c(C)noc2C)O3)cc1 | – | – | – | – | – | –
Cc1cc(C)c(N=C2CCCN2Cc2ccccc2)c(C#N)c1 | – | – | – | · | 84.4 | –
Cc1ccc(NC(=O)c2ccccc2)cc1 | ? | – | – | · | – | –
Cc1ccc(NC(=O)C(=O)c2ccc(C)cc2)cc1 | 75.5 | · | – | – | – | –
Cc1nc(SCCC(=O)O)c2cc(-c3ccccc3)sc2n1 | – | · | – | · | 66.8 | –
Cc1nc(N2CCOCC2)c2cc(-c3ccccc3)sc2n1 | – | · | – | · | – | –
Cc1ccc(S(=O)(=O)Nc2ccc3c(c2)C(=O)N([C@@H](C)CO)C[C@H](C)[C@@H](CN(C)C(=O)Nc2c(C)noc2C)O3)cc1 | – | – | – | – | – | –
Cc1cc(C)c2[nH]c(O)c(N=Nc3ccc(C(=O)O)cc3)c2c1 | 47.3 | – | – | – | – | –

Assay outcomes from PubChem.
